One test addresses Human oxidized LDL. The experiment in a line: ELISA: oxLDL coated on the plate, His-LOX-1 titrated, detected with goat anti-LOX-1 and HRP secondary antibody, OD450.
Test [1] deals with purified recombinant human CRP (human) (UniProt P02741). The experiment in a line: ELISA: CRP coated on the plate, His-LOX-1 titrated, detected with goat anti-LOX-1 and HRP secondary antibody, OD450.

“purified recombinant human LOX1 comprised of the extracellular domain (ECD) of human LOX-1 (amino acids 61-273) with an N-terminal polyhistidine tag (from UniProt P78380 61-273) (receptor)”: in the test with Human oxidized LDL, the EC50 (read off the curve) came out at 2 mg/L. On to “purified recombinant human LOX1 comprised of the extracellular domain (ECD) of human LOX-1 (amino acids 61-273) with an N-terminal polyhistidine tag (from UniProt P78380 61-273) (receptor; other documents disagree on this pair)”, for which, in test [1], the EC50 (read off the curve) was found to be 2 mg/L.

For orientation: EC50 (read off the curve) means the concentration needed to bring the measured effect to its halfway point.

Values taken from US20090311271A1.
